Tested on: MIA-induced osteoarthritic pain in rats
Assay: Osteoarthritic (OA) pain induced by sodium monoiodoacetate (MIA), hind limb grip force
Conditions: rat, in vivo
Protocol: Osteoarthritic (OA) Pain Induced by Sodium Monoiodoacetate (MIA)
Pain behavior was assessed by measurement of hind limb grip force (GF) in adult osteoarthritic rats. Male Sprague Dawley rats, obtained from Charles River Laboratories, (Wilmington, Mass.), weighing 150-175 g, were injected in the unilateral knee join with a single intra-articular injection of sodium monoiodoacetate (MIA, 3 mg/rat). All rats were tested at 20 days following MIA injection. A behavioral measure of activity-induced pain was carried out. Measurements of the peak hind limb grip force were conducted by recording the maximum compressive force (CFmax), in grams of force, exerted on a hind limb strain gauge setup, in a commercially available grip force measurement system (Columbus Instruments, Columbus, Ohio).
During testing, each rat was gently restrained by grasping it around its rib cage and then allowed to grasp the wire mesh frame attached to the strain gauge. […]
For evaluating the compound effects, the hind limb grip force was conducted 20 days following the intra-articular injection of MIA. […] The % effect for each dose group was expressed as % return of response to normalcy, compared to the nave group. A percent maximal possible effect (% MPE) of testing compound was calculated according to the formula: (Treatment CFmax−Vehicle CFmax)/Vehicle CFmax]×100). […]

For `CC[C@H]1CCCN1C(=O)CN1CCN(c2cccc3c2cnn3-c2ccccc2F)C1=O` [Example 21, 1-{2-[(2S)-2-ethylpyrrolidin-1-yl]-2-oxoethyl}-3-[1-(2-fluorophenyl)-1H-indazol-4-yl]imidazolidin-2-one], the “OA MPE (%)” value was 21%.
